# Ab-14 heavy chain CDR variants: yeast mating affinities

Values reported by Li et al. 2023, doi:10.1038/s41467-023-39022-2 (FLAb copy).

The target is the same throughout: PDVDLGDISGINAS, from the HR2 region of SARS-CoV-2 spike.

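The parent was found by panning a naive human phage display library on the peptide. This is the validation round: designs drawn from the data on random variants, tested in the same kind of assay. Several design methods are mixed in this list. The assay is AlphaSeq: two haploid yeast populations carry antibody and antigen on their surface. Binding brings cells together so that they mate, and sequencing counts the barcode pairs among the diploids. Read counts were normalised to the haploid input and turned into Kd by a linear fit to BCL2-family pairs of known affinity, for each replicate. Each pool was mated in six replicate cultures.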

Parent: Ab-14, a human scFv built as VH, a 15-residue (Gly4Ser)3 linker, VL. Only the CDRs of the heavy chain vary.
VH: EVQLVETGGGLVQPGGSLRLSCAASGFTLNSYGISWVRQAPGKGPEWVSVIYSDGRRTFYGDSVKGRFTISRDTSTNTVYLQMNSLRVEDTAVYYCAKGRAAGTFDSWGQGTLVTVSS
VL: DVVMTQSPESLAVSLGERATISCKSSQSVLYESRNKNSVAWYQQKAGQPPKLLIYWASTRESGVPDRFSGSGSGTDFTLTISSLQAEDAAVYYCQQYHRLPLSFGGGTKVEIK

The parent's heavy chain CDRs are GFTLNSYGIS, VIYSDGRRTFYGDSVK, GRAAGTFDS; each variant's own CDRs replace them letter for letter.
Numbers give log10(Kd / nM), so 0 is 1 nM and 3 is 1 µM. Smaller is tighter.
Replicates are averaged; those with no signal do not enter the mean.
"not detected" marks a missing value. The strain was present, yet no cells mated with the target were sequenced in any replicate, which points to weak or no binding.
Order: sorted from the lowest average up, undetected variants last.

| # | CDR-H1 | CDR-H2 | CDR-H3 | mean, log10 nM | seen in |
|---|---|---|---|---|---|
| 1 | GFDLNEYGIS | VIYADGSRKAYADSVK | GENAGTFDV | -1.78 | 2 of 6 |
| 2 | GFDLNEYGIS | VIYADGRRTFYSDSVK | GANGGTFDM | -0.71 | 6 of 6 |
| 3 | GFDLNEYGIS | VIYADGQRTAYADSVK | GKQAGTFDS | -0.53 | 6 of 6 |
| 4 | GFDLNEYGIS | VIYADGLRTAYSDSVK | GNVAGTFDM | -0.46 | 6 of 6 |
| 5 | GFDLNEYGIS | VIYADGKRTAYSDSVK | GQNAGTFDV | -0.46 | 6 of 6 |
| 6 | GFDLDEYGIS | VIYADGKRTAYTDSVK | GNNAGTFDV | -0.43 | 6 of 6 |
| 7 | GFDLNEYGIS | VIYADGVRTAYVDDVK | GNVAGTFDL | -0.38 | 6 of 6 |
| 8 | GFDLNEYGIS | VIYADGMRTAYTDSVK | GEVAGTFDA | -0.36 | 6 of 6 |
| 9 | GFDLNEYGIS | VIYADGVRTAYSDSVK | GQVAGTFDI | -0.33 | 6 of 6 |
| 10 | GFDLNEYGIS | VIYADGFRTFYTDSVK | GEVAGTFDV | -0.32 | 6 of 6 |
| 11 | GFDLNEYGIS | VIYADGRRTAYADSVK | GEAAGTFDV | -0.24 | 6 of 6 |
| 12 | GFDLNEYGIS | VIYADGRRTFYADSVK | GGAAGTFDV | -0.24 | 6 of 6 |
| 13 | GFDLNEYGIS | VIYADGMRTYYADDVK | GNVAGTFDV | -0.23 | 6 of 6 |
| 14 | GFDLNEYGIS | VIYADGRRTFYSDSVK | GEAAGTFDE | -0.22 | 6 of 6 |
| 15 | GFDLNSYGIS | VIYSDGRRTFYVDSVK | GQEAGTFDS | -0.15 | 6 of 6 |
| 16 | GFSLNSYGIS | VIYSDGRRTFYVDSVK | GQAAGTFDA | -0.06 | 6 of 6 |
| 17 | GFFLNDYGIS | VIYSDGRRTFYGDSVK | GTVAGTFDS | 0.00 | 6 of 6 |
| 18 | GFDLNSYGIS | VIYSDGLRTFYGDSVK | GRTAGTFDS | 0.01 | 6 of 6 |
| 19 | GFDLNSYGIS | VIYSDGRRTFYGDSVK | GKNAGTFDA | 0.06 | 6 of 6 |
| 20 | MFDLNSYGIS | VIYSDGRRTFYIDSVK | GEAAGTFDS | 0.12 | 1 of 6 |
| 21 | GFDLEDYGIS | VIYADGMRTFYADSVK | GNVAGTFDV | 0.18 | 6 of 6 |
| 22 | GFDLDEYGIS | VIYADGMRTAYTDSVK | GEVAGTFDL | 0.19 | 6 of 6 |
| 23 | GFDLNEYGIS | VIYADGKRTAYADDVK | GTNAGTFDI | 0.20 | 2 of 6 |
| 24 | GFDLNEYGIS | VIYSDGRRTFYGDSVK | GRHAGTFDS | 0.31 | 6 of 6 |
| 25 | GFSLNSYGIS | VIYSDGRRTFYGDSVK | GEAAGTFDT | 0.39 | 6 of 6 |
| 26 | GFTLNSYGIS | VIYSDGRRTFYSDSVK | GKAAGTFDV | 0.52 | 6 of 6 |
| 27 | GFGLNEYGIS | VIYSDGRRTFYGDSVK | GNAAGTFDS | 0.52 | 6 of 6 |
| 28 | GFELNSYGIS | VIYSDGRRTFYGDSVK | GVLAGTFDK | 0.64 | 6 of 6 |
| 29 | GFSLNSYGIS | VIYSDGRRTFYADSVK | GNAAGTFDN | 0.77 | 6 of 6 |
| 30 | EFDLQEFGIS | VIYADGKREAYKDDFK | GQVAGTFDL | 0.89 | 6 of 6 |
| 31 | GFTLNMYGIS | VIYADGRRTFYGDFVK | GHNAGTFDS | 0.93 | 1 of 6 |
| 32 | EFDLNEYGVS | VIYADGHRTFYADHVK | GQEAGFFFD | 1.02 | 6 of 6 |
| 33 | GFTLNSYGIS | VIYSDGRRTQYSDSVK | GRAAHTFDS | 1.19 | 1 of 6 |
| 34 | GFELNSYGIS | VIYSDGRRTFYGDSVK | GRQAGTFDK | 1.39 | 5 of 6 |
| 35 | GFNLNSYGIS | VIYSDGRRTFYADRVK | GVAAGTFDS | 1.42 | 6 of 6 |
| 36 | GFQLNSYGIS | VIYSDGRRTFYHDSVK | GRAAGTFDS | 1.68 | 5 of 6 |
| 37 | GFELQEFGIS | VIYADGIRTNYSQNVK | GTLAGTFTQ | 1.76 | 2 of 6 |
| 38 | GFDLDEYGIS | VIYADGMRTAYADSVK | GENAGTFDM | 1.86 | 6 of 6 |
| 39 | GFQIDEYGIS | VIYADGMRSGYKNSVK | NGFNVSGIV | 2.42 | 1 of 6 |
| 40 | GFTLNSYGIS | VIYSDGRRTYYSDSVK | GRAGGTFDS | 2.54 | 2 of 6 |
| 41 | GFTLNDYGIS | VIYSDGRRTFYGDSVK | GRMAGTFSS | 2.64 | 4 of 6 |
| 42 | GKKLDEYGIS | VIYADGVRTHYAESVK | GLHGTYLVI | not detected | 0 of 6 |
| 43 | GFTLNEYGIS | VIYSDGRRTFYGDSVK | GEAAGTFDL | not detected | 0 of 6 |
| 44 | GFELNSYGIS | VIYSDGRRTFYWDSVK | GQLAGTFDS | not detected | 0 of 6 |
| 45 | GFTLNSYGIS | VIYSDGRRTFYGTSVK | GRAVGTFDS | not detected | 0 of 6 |
| 46 | GFTLNSWMIS | VIYSDGRRTFYSDSVK | GRAGGTFDS | not detected | 0 of 6 |
| 47 | GFTLNSYGIS | VIYSDGRRTFYGGSVK | GRAAGTFDT | not detected | 0 of 6 |
| 48 | KFTLNSYGIS | VIYSDGRRTSYGDSVK | GRVAGTFDS | not detected | 0 of 6 |
| 49 | GFKLNEYGIS | VIYADGQRVAYTNSFK | GTQAGMFFE | not detected | 0 of 6 |
| 50 | GFTLNEYGIS | VIYSDGRRTFYGDSVK | GRSAGTFMT | not detected | 0 of 6 |
| 51 | GFTGNDYGIS | VIYSDGRRTQRIDSVK | GRAAGTRDS | not detected | 0 of 6 |
| 52 | GFTLDSYGIS | VIYSDGRTTFYGDSVK | GRAAGTALS | not detected | 0 of 6 |
| 53 | GFCLNEYGIS | VIYSDGRRTFYIDSVK | GKAAGTFDS | not detected | 0 of 6 |
| 54 | GFTLNEYGIS | VIYSDGRRTFYGDAVK | GRAAVTFDV | not detected | 0 of 6 |
| 55 | GFKLNSYGIS | VIYSDGRRTFYDDSVK | GQEAGTFDS | not detected | 0 of 6 |
| 56 | GFTLDSYHIS | VIYSDGRRKFYQDSDK | ARAFGTALS | not detected | 0 of 6 |
| 57 | GFDLDEYGIS | VIYADGRRTFYADSVK | GTNAGTFLI | not detected | 0 of 6 |
| 58 | GFTLNSYGIS | VIYSDGRRTFYDDSVK | GQLAGTFWS | not detected | 0 of 6 |
| 59 | GFDLNEYGIS | VIYADGMRTAYLDSVK | GEAAGTFDS | not detected | 0 of 6 |
| 60 | KFDLNSYGIS | VIYSDGRRTFYGDSVK | GRVAGTFDS | not detected | 0 of 6 |
| 61 | GFTLNSYGIS | VIYSDGRRTFYGDSVK | GRTAGSFTT | not detected | 0 of 6 |
| 62 | GFELNDYGIS | VIYSDGRRTIYIDSVK | GRAAGTFDS | not detected | 0 of 6 |
| 63 | LFTLNDYGIS | VIYSDGRRTQYIDSVK | GRAAGTKDS | not detected | 0 of 6 |
| 64 | GFTLDEYGIS | VIYADGVRVEYADSVK | GSHGLYLML | not detected | 0 of 6 |
| 65 | GFDINEYGIS | VIYADGVRTHYVQDVK | GKHTGMKMA | not detected | 0 of 6 |
| 66 | GFTLNEYGIS | VIYSDGRRTFYGDNVK | GRAAVTFDQ | not detected | 0 of 6 |
| 67 | GFTLNSYGIS | VIYSDGRRTFYDDVVK | GQLAGTFDS | not detected | 0 of 6 |
| 68 | GFNLNSYGIQ | IIYSDGRRTFYEDSVK | GRTAGTFDS | not detected | 0 of 6 |

Empty control strains, which show no peptide, gave a signal in 1% of pairings with all heavy chain designs; the median was 2.08 and 95% of these signals were weaker than 0.84. No background was subtracted.
The range of this assay differs from that of the first round, and the authors advise against merging the two.
In the paper, a design with two or fewer of six values counts as a poor binder.